## Binding of CDR-mutated scFvs to a peptide of the spike HR2 region

From the AlphaSeq antibody data of Engelhart et al. 2022 (doi:10.1038/s41597-022-01779-4), copy in the FLAb collection.

All variants were tested on one target, the spike HR2 peptide PDVDLGDISGINAS (SARS-CoV-2).

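The starting antibody came from a phage panning campaign against this peptide. In library AAYL50, one, two or three CDR residues were substituted; doubles and triples were drawn at random. Affinity was read by AlphaSeq, a pooled yeast mating assay with surface-displayed partners. Mating (16 h, 30 °C) was followed by selection of diploids and sequencing of their barcodes. The ratio of observed to expected reads was calibrated, replicate by replicate, on BCL2-family standards whose Kd was known from biolayer interferometry. Each pool was mated in three replicate cultures.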

Ab-14 is the parent antibody, in scFv form: VH, then the linker GGGGSGGGGSGGGGS, then VL. The heavy chain is unchanged in all variants.
VH: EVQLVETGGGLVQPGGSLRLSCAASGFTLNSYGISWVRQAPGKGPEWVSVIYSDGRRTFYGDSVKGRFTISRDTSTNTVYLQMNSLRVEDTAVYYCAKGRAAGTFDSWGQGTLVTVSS
VL: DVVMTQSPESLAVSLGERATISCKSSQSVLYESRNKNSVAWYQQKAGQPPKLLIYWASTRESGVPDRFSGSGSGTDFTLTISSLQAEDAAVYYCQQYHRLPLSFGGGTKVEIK

Sequences are complete VL domains. Each Kd is an estimate from the mating assay, the geometric mean of the replicates in which the pair was seen; lower is stronger. "no signal" means that the variant was in the library but no mating with the target was seen in any replicate; the authors take this as a sign of poor binding, and no number exists. Three control strains display no target. For library AAYL50, 18% of the pairings with them gave a signal, with a median of 15 µM and one signal in twenty below 970 nM, so weak values seen in few replicates may be background. The control count says in how many pairings with the empty strains this scFv gave a signal. Parent in this assay: reference entry 4.4 nM, copy in this library 48 nM.

VL,Kd (apparent),seen in,signal with controls
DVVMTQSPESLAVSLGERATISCKSSQSVLYEKRNKNSVHWYQQKAGQPPKLLIYWASTRESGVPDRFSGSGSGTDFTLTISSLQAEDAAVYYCQQRHRLPLSFGGGTKVEIK,7.4 µM,2/3,4/9
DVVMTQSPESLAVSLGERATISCKSSSSVLYESRNKNSVAWYQQKAGQPPKLLIYWASTRESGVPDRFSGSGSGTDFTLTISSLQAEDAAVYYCQMYHRLPISFGGGTKVEIK,1.2 µM,3/3,1/9
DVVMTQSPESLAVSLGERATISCKSSQSVLYPSRSKNSVAWYQQKAGQPPKLLIYWASTRESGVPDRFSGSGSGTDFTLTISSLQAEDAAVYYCQEYHRLPLSFGGGTKVEIK,27 nM,3/3,2/9
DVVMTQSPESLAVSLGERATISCKSIQSVLYESRNKNSVDWYQQKAGQPPKLLIYWASTRSSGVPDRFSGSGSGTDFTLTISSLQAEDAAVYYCQQYHRLPLSFGGGTKVEIK,no signal,0/3,5/9
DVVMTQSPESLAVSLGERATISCKSSQSPLYEYRRKNSVAWYQQKAGQPPKLLIYWASTRESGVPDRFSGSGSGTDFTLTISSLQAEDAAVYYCQQYHRLPLSFGGGTKVEIK,33 nM,3/3,2/9
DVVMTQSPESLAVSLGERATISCKSSNSVLYESRNKNSVAWYQQKAGQPPKLLIYWASTRNSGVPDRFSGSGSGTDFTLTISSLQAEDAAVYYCQQYHRLVLSFGGGTKVEIK,no signal,0/3,1/9
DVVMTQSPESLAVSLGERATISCKSSQSVLYESHNKNSVAWYQQKAGQPPKLLIYTHSTRESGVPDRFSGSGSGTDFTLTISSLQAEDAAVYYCQQYHRLPLSFGGGTKVEIK,360 nM,1/3,1/9
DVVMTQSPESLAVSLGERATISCKSSQWVLYESRNTNSVAWYQQKAGQPPKLLIYTASTRESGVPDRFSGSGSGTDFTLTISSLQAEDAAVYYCQQYHRLPLSFGGGTKVEIK,no signal,0/3,0/9
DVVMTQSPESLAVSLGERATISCKSSTSVLYESRNKNSVAWYQQKAGQPPKLLIYWASTRESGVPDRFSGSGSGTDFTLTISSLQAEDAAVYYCQQYQRLSLSFGGGTKVEIK,27 nM,3/3,0/9
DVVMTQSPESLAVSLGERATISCKISQLVLYESRNKNSVYWYQQKAGQPPKLLIYWASTRESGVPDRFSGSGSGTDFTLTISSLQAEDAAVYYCQQYHRLPLSFGGGTKVEIK,no signal,0/3,0/9
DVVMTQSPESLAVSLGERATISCKSSQSALYESRNKNSETWYQQKAGQPPKLLIYWASTRESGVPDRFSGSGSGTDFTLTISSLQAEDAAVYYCQQYHRLPLSFGGGTKVEIK,no signal,0/3,0/9
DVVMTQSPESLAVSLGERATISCKSSQSVLWESRNKNSVAWYQQKAGQPPKLLIYWASDGESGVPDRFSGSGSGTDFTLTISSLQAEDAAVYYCQQYHRLPLSFGGGTKVEIK,56 µM,1/3,4/9
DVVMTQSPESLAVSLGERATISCKSFQSVLYESFNKNPVAWYQQKAGQPPKLLIYWASTRESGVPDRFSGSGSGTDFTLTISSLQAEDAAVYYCQQYHRLPLSFGGGTKVEIK,no signal,0/3,1/9
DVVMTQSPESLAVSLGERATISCKSSQCVQYESRNKNSRAWYQQKAGQPPKLLIYWASTRESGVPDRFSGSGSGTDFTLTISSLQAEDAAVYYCQQYHRLPLSFGGGTKVEIK,no signal,0/3,0/9
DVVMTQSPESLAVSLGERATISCKSSVSVLYESREKNSVAWYQQKAGQPPKLLIYWASTRESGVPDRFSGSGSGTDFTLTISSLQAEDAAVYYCQTYHRLPLSFGGGTKVEIK,1.2 µM,3/3,1/9
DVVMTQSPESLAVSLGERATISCKSSQSVTYESRNKNSVAWYQQKAGQPPKLLIYWASTRESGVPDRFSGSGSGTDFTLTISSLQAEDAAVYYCQQYHRVPNSFGGGTKVEIK,no signal,0/3,1/9
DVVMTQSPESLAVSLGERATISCKSSQSVLYESKNKNQVAWYQQKAGQPPKLLIYWNSTRESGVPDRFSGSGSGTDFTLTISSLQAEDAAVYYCQQYHRLPLSFGGGTKVEIK,1.1 µM,1/3,0/9
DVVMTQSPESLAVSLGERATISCKFSQEVLYESRNKNSVAWYQQKAGQPPKLLIYWASTRESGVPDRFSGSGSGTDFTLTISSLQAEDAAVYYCQQYHYLPLSFGGGTKVEIK,1.3 nM,3/3,3/9
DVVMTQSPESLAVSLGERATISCKSSQQVLYESRNKNSVEWYQQKAGQPPKLLIYWASTRESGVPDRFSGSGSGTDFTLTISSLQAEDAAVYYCQQYHRLPTSFGGGTKVEIK,no signal,0/3,1/9
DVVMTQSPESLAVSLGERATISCKSSQSVLIESRNKNSVAWYQQKAGQPPKLLIYWASIRESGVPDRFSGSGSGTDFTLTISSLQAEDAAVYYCRQYHRLPLSFGGGTKVEIK,no signal,0/3,0/9
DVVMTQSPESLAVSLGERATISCKSSQSVLYESRNDNSVAWYQQKAGQPPKLLIYWPSTRESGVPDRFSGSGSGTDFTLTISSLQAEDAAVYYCQQYHRLPLHFGGGTKVEIK,420 nM,2/3,0/9
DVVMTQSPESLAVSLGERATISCKSSQSVKYESRAKNSVAWYQQKAGQPPKLLIYWASGRESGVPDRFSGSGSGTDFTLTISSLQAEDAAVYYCQQYHRLPLSFGGGTKVEIK,6.6 µM,1/3,5/9